ALR inh: inhibitors of human sulfhydryl oxidase ALR; AID 485317; inhibition, % (no concentration beside the values); purified ALR, DTT oxidation, H2O2 HRP-luminol luminescence; hit rate 3.8% among 290,000;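 active means mean and each replicate at 75% or more; inconclusive means only one of the two met; inactive means neither met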;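 further: stock transfer was 7.5 nL into about 7.5 µL; 0% = neutral wells and 100% = wells with inactivated enzyme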
NALP1 inh: NALP1 inhibition. S. cerevisiae NALP1/ASC/caspase-1 growth, X-gal OD620, 72 h. inhibition, % at 10 µM. hit rate 0.61% among 280,000; in the data active = inhibition mostly above about 24%, no sharp cut-off; inactive = mostly below about 32%
UUG fidelity: modulators of yeast start codon fidelity, primary screen, whole organism, S. cerevisiae, single point, plate reader; S. cerevisiae UUG-firefly luciferase reporter, luminescence/redox ratio; activity score, % at 18.7 µM; 0.13% of 350,000 active; AID 602363, 2012;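 active = replicate mean at a twofold rise or more, about +100% in these data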;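 also: firefly luciferase made from a UUG start codon reports start codon fidelity; reporter light over untreated wells divided by growth signal over untreated wells; some hits fall short of that in this replicate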
MC4R ag barr: human MC4R agonism via beta-arrestin. AID 540308. P32245. activation, % at 8.9 µM. U2OS MC4R beta-arrestin complementation, luminescence; percent of melanotan II response, DMSO zero. hit rate 0.98% among 360,000;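 active = activation above a per-plate cutoff, the mean activation of sample wells on that plate plus 3 SD, cut at about 8% in these data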
MC4R antag cAMP: antagonists of human melanocortin 4 receptor (MC4R); inhibition, % at 6.5 µM; hit rate 0.48% among 360,000; AID 540295; MC4R-expressing cells, MTII-stimulated cAMP, LANCE TR-FRET;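 active = inhibition above its plate's cutoff, the mean of tested wells on that plate plus 3 SD, cut at about 29% in these data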;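 note: 0% = Melanotan II alone and 100% = Melanotan II plus saturating MCL0020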
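System – human MC4R-expressing U2OS cells · Also added – Melanotan II · Dosing – one concentration, 6.5 µM nominal · Timing – 30-min compound, 1-h challenge, 1-h detection, room temperature · Measured by – Eu-cAMP/anti-cAMP TR-FRET, emission 671 nm · Replicates – singlicate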
HDAC3 inhib: human HDAC3 inhibition; hit rate 0.15% among 320,000; inhibition, % at 8.3 µM; AID 2718; O15379; recombinant HDAC3, fluorogenic peptide/trypsin coupled, fluorescence; in the data active = inhibition above about 26%, passing the limit was not always enough
cAMP nonselect: counter-screen for MC4R antagonists: nonselective cAMP signaling inhibitors; shares compounds with MC4R antag cAMP; parental U2OS, forskolin cAMP, LANCE TR-FRET; inhibition, % at 6.5 µM; hit rate 26% among 1,600; AID 602193;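 active = mean inhibition over triplicates above the low-control well mean plus 3 SD, set per campaign, cut at about 13% in these data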;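 note: signal is single emission at 671 nm which falls as cellular cAMP rises; 0% = forskolin-stimulated wells and 100% = buffer without forskolin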
MC4R antag conf: human MC4R cAMP antagonism confirmation | shares compounds with MC4R antag cAMP | MC4R-expressing cells, MTII-stimulated cAMP, TR-FRET | inhibition, % at 6.5 µM | hit rate 27% among 1,600 | AID 602195; in the data active = inhibition above about 29%;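 note: 0% = agonist stimulated wells alone and 100% = agonist stimulated wells plus saturating reference antagonist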
* marks the source's active call; other numbers are inactive results; · = no result given. Rows were chosen to be rich in hits. Some 4.2% of all compounds tested hit in one or more screens of this group.

| No. | Molecule | ALR inh | NALP1 inh | UUG fidelity | MC4R ag barr | MC4R antag cAMP | HDAC3 inhib | cAMP nonselect | MC4R antag conf |
| --- | --- | --- | --- | --- | --- | --- | --- | --- | --- |
| 1 | C[C@H]1CN([C@@H](C)CO)S(=O)(=O)c2ccc(C#Cc3ccncc3)cc2O[C@H]1CN(C)C(=O)C1CCC1 | · | · | 6 | · | · | · | · | · |
| 2 | CCCc1cn(CC[C@H]2CC[C@H](NS(=O)(=O)c3ccc(-c4ccccc4)cc3)[C@@H](CO)O2)nn1 | · | · | -7 | · | · | · | · | · |
| 3 | CSc1ccc(S(=O)(=O)NCC(=O)OCCOc2ccccc2)cc1[N+](=O)[O-] | 0 | · | · | -1 | 0 | 8 | · | · |
| 4 | Nc1ccc(S(=O)(=O)NCC(=O)OCCOc2ccccc2)cc1[N+](=O)[O-] | -2 | · | -2 | -4 | 33* | -11 | 27* | 24 |
| 5 | COCC(C)n1c(C)cc(C(=O)COC(=O)C2=NN(c3ccccc3)C(=O)CC2)c1C (stereo not drawn) | -26 | 1 | · | -2 | -3 | 3 | · | · |
| 6 | Cc1cc(C(=O)COC(=O)C2=NN(c3ccccc3)C(=O)CC2)c(C)n1CC(F)(F)F | -5 | 2 | · | 2 | 30* | 7 | 0 | -6 |
| 7 | CNC[C@@H]1Oc2ccc(NS(=O)(=O)c3cccs3)cc2CC(=O)N([C@H](C)CO)C[C@H]1C | · | · | -4 | · | · | · | · | · |
| 8 | COc1cc(C2NCC(c3ccc(Cl)cc3Cl)c3c2[nH]c2ccccc32)cc(OC)c1OC (stereo not drawn) | -9 | 38 | 5 | 6 | 36* | 15 | 6 | 11 |
| 9 | COc1ccc(S(=O)(=O)Nc2ccc3c(c2)C(=O)N([C@H](C)CO)C[C@H](C)[C@@H](CN(C)S(=O)(=O)c2ccc(C)cc2)OCCCC[C@H](C)O3)cc1 | · | · | 4 | · | · | · | · | · |
| 10 | CNC[C@@H]1Oc2ncc(-c3ccc(OC)cc3)cc2C(=O)N([C@H](C)CO)C[C@H]1C | · | · | 1 | · | · | · | · | · |
| 11 | COc1cc(CN2C(=O)C(CCc3ccccc3)ON=C2c2cnccn2)cc(OC)c1 (stereo not drawn) | · | · | -5 | 0 | 16 | · | · | · |
| 12 | CC(=O)Oc1ccc(CN2C(=O)C(CCc3ccccc3)ON=C2c2cnccn2)cc1 (stereo not drawn) | · | · | -14 | 0 | 29* | · | 6 | 13 |

(list continues)
| No. | Molecule | ALR inh | NALP1 inh | UUG fidelity | MC4R ag barr | MC4R antag cAMP | HDAC3 inhib | cAMP nonselect | MC4R antag conf |
| --- | --- | --- | --- | --- | --- | --- | --- | --- | --- |
| 13 | CCOc1ccc2nc(NC(=O)C3CCCN(S(=O)(=O)c4cccc5nonc45)C3)sc2c1 (stereo not drawn) | -7 | -1 | -19 | 1 | 33* | -2 | 4 | 22 |
| 14 | COc1ccc(NC(=O)N2CCCCN3[C@H](CO)[C@H](c4ccc(-c5ccccc5F)cc4)[C@@H]3C2)cc1 | · | · | 1 | · | · | · | · | · |
| 15 | CC(C)NS(=O)(=O)c1ccc(CCC(=O)N2CCC(C(N)=O)CC2)cc1 | -1 | 9 | · | 0 | 31* | 0 | 4 | 9 |
| 16 | CC(C)NS(=O)(=O)c1ccc(CCC(=O)N2CCCC2)cc1 | -17 | 17 | · | 0 | -3 | -7 | · | · |
| 17 | CCC(=O)N(C)C[C@H]1Oc2cc(C3=CCCC3)ccc2S(=O)(=O)N([C@H](C)CO)C[C@H]1C | · | · | 36 | · | · | · | · | · |
| 18 | CCOC(=O)c1cnc2ccc(OCC)cc2c1NCc1ccccc1OC | -5 | 13 | -3 | 2 | 48* | -2 | 16* | 48* |
| 19 | CCOC(=O)c1cnc2ccc(OC)cc2c1NCc1ccccc1 | -47 | 32 | 6 | 0 | 4 | 4 | · | · |
| 20 | O=C1c2ccccc2NC(c2ccccc2Br)N1CCCN1CCOCC1 (stereo not drawn) | 1 | 26 | 0 | -1 | 29* | -3 | 1 | 1 |
| 21 | Cc1cc(C)n(-c2nnc(NC34CC5CC(CC(C5)C3)C4)nn2)n1 | · | 23 | -18 | 0 | 29* | 1 | -2 | 0 |
| 22 | CCn1c(CC(=O)Nc2ccc(F)cc2)nnc1SCC(=O)NC1CCCC1 | -5 | 5 | -12 | 2 | -3 | -3 | · | · |
| 23 | CCn1c(CC(=O)Nc2ccc(F)cc2)nnc1SCC(=O)Nc1nnc(C)s1 | 1 | 1 | · | 3 | 30* | 0 | -1 | 0 |
| 24 | Cc1ccc(S(=O)(=O)/N=C2/C=C(Sc3ncn[nH]3)C(=O)c3ccccc32)cc1 | -28 | 29 | -35 | -1 | 48* | 12 | 27* | 35* |

(continued)
| No. | Molecule | ALR inh | NALP1 inh | UUG fidelity | MC4R ag barr | MC4R antag cAMP | HDAC3 inhib | cAMP nonselect | MC4R antag conf |
| --- | --- | --- | --- | --- | --- | --- | --- | --- | --- |
| 25 | CCOC(=O)c1cc(C)n(-c2c(C)n(C)n(-c3ccccc3)c2=O)c1C | -2 | 1 | 2 | 0 | 11 | -2 | · | · |
| 26 | CCCCC(=O)OCC(=O)c1cc(C)n(-c2c(C)n(C)n(-c3ccccc3)c2=O)c1C | -9 | -7 | · | 0 | 31* | 13 | 0 | 0 |
| 27 | O=C(Nc1ccc(F)cc1)N[C@H]1CC[C@@H](CCNS(=O)(=O)c2cccc(Cl)c2)O[C@H]1CO | · | · | -2 | · | · | · | · | · |
| 28 | COc1nc(Cl)cn(-c2ccc(C)cc2)c1=O | -5 | 14 | · | -1 | 0 | 1 | · | · |
| 29 | Cc1ccc(-n2c(Cl)c(Cl)nc(Cl)c2=O)cc1 | 97* | 124* | · | -4 | 46* | -1 | 57* | 55* |
| 30 | C[C@@H]1CCCCO[C@H](CN(C)C(=O)Nc2ccccc2)[C@@H](C)CN([C@H](C)CO)C(=O)c2cc(NS(C)(=O)=O)ccc2O1 | · | · | -7 | · | · | · | · | · |
| 31 | S=c1[nH]nc(-c2cccnc2)o1 | 65 | 12 | -14 | -1 | 13 | 3 | · | · |
| 32 | S=c1[nH]nc(-c2cccc(Br)c2)o1 | · | -17 | -23 | -3 | 46* | -4 | 16* | 24 |
| 33 | CNC(=S)N1CCc2cc(OC)c(OC)cc2C1COc1ccc(OC)cc1 (stereo not drawn) | -15 | 4 | · | 0 | 7 | 3 | · | · |
| 34 | COCCNC(=S)N1CCc2cc(OC)c(OC)cc2C1COc1cc(C)cc(C)c1 (stereo not drawn) | 2 | -2 | · | 1 | 29* | 4 | -5 | 12 |
| 35 | CCc1ccc(OCC(=O)NC(NC(=S)Nc2ccccc2OC)C(Cl)(Cl)Cl)cc1 (stereo not drawn) | -8 | 26 | · | 4 | 38* | 2 | 1 | 27 |
| 36 | O=C(COc1ccccc1[N+](=O)[O-])OCC(=O)c1ccc(Br)s1 | -5 | · | -2 | -1 | 45* | 4 | 14* | 38* |

The results go on:
| No. | Molecule | ALR inh | NALP1 inh | UUG fidelity | MC4R ag barr | MC4R antag cAMP | HDAC3 inhib | cAMP nonselect | MC4R antag conf |
| --- | --- | --- | --- | --- | --- | --- | --- | --- | --- |
| 37 | Cc1cnc(NC(=O)Cc2ccccc2Cl)s1 | 0 | 14 | -12 | 0 | 30* | 6 | -1 | -6 |
| 38 | Cc1csc(NC(=O)Cc2ccccc2Cl)n1 | 2 | 8 | -11 | -1 | 6 | 0 | · | · |
| 39 | CCCCNc1c(-c2ccc(OC)c(SC3CCCCC3)c2)nc2cnccn12 | 13 | · | -2 | 7 | 32* | 12 | 8 | 27 |
| 40 | Cc1cc(OC(F)F)ccc1NC(=S)NCCc1ccccc1 | -2 | 6 | -18 | -2 | 8 | 1 | · | · |
| 41 | FC(F)Oc1ccccc1NC(=S)NCCc1ccccc1 | 1 | · | -23 | 0 | 32* | 5 | -1 | -6 |
| 42 | COc1cccc(OC)c1C(=O)NC(=O)Nc1c(C)cccc1C | -5 | 1 | -11 | -2 | 29* | 3 | 0 | 0 |
| 43 | CO[C@@H]1CN(C)C(=O)c2ccc(NC(=O)C3CCC3)cc2OC[C@@H](C)N(Cc2nccs2)C[C@H]1C | · | · | 5 | · | · | · | · | · |

Entries of single compounds, quoted from the list. Order of screens: ALR inh	NALP1 inh	UUG fidelity	MC4R ag barr	MC4R antag cAMP	HDAC3 inhib	cAMP nonselect	MC4R antag conf
CO[C@@H]1CN(C)C(=O)c2ccc(NC(=O)C3CCC3)cc2OC[C@@H](C)N(Cc2nccs2)C[C@H]1C reads ·	·	5	·	·	·	·	·
Cc1cnc(NC(=O)Cc2ccccc2Cl)s1 reads 0	14	-12	0	30*	6	-1	-6
Cc1csc(NC(=O)Cc2ccccc2Cl)n1 reads 2	8	-11	-1	6	0	·	·

An excerpt from above in order of the MC4R ag barr value, ascending.
nr	compound	MC4R ag barr
40	Cc1cc(OC(F)F)ccc1NC(=S)NCCc1ccccc1	-2
37	Cc1cnc(NC(=O)Cc2ccccc2Cl)s1	0
39	CCCCNc1c(-c2ccc(OC)c(SC3CCCCC3)c2)nc2cnccn12	7

Source: PubChem BioAssay (several laboratories)
